Data taken from PMC12610713, “Inhibition Profiling of Rhodiola crenulata on Lactate Dehydrogenase Isoenzymes” (Molecules, 2025).

The chains behind the UniProt entries cited, without tags or fusion partners.
UniProt P07195, whole entry: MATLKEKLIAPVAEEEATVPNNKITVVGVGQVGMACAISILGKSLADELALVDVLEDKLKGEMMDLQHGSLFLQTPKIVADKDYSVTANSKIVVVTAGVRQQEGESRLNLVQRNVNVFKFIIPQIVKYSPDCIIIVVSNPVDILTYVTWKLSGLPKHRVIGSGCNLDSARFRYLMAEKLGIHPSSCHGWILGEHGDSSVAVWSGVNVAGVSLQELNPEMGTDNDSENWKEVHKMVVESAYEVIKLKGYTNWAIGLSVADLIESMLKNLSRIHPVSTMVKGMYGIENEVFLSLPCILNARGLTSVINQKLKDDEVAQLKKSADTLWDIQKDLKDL

Target: T1, recombinant LDHB (Homo sapiens, UniProt P07195)
T1 construct: His-tag; made in house; host or cells: E. coli BL21(DE3)
Experiment: LDHB enzyme activity inhibition assay (NADH oxidation, 340 nm)
Assay type: biochemical
Experimental: The Z’ factor (Z’ = 1 − [3 × (σₚ + σₙ)]/|μₚ − μₙ|) was used to evaluate the robustness of the screening platform, where σ represents the standard deviation, μ represents the mean value, p denotes enzyme activity, and n denotes the background signal. […] (2) The enzyme-inhibitor mixture was pre-incubated for 10 min at room temperature. […] (4) At 30 °C, the enzymatic reaction was monitored at 340 nm for 20 min.
For the enzyme activity assay, the concentrations of the R. crenulata extract were 20 µg/mL, while the 19 isolated components was assayed at 10 µM and 40 µM.

`Cc1cc2c(C(C)C)c(O)c(O)c(C=O)c2c(O)c1-c1c(C)cc2c(C(C)C)c(O)c(O)c(C=O)c2c1O` [gossypol, reference compound] showed an IC50 of 270 ± 40 nM.
